Test results taken from ChEMBL document CHEMBL1250454, “Oral oxytocin antagonists” (J Med Chem, 2010).
pKi: −log10 of the molar value.

Biological target: T1, Oxytocin receptor (Rattus norvegicus, UniProt P70536)
T1 sequence (P70536 whole entry): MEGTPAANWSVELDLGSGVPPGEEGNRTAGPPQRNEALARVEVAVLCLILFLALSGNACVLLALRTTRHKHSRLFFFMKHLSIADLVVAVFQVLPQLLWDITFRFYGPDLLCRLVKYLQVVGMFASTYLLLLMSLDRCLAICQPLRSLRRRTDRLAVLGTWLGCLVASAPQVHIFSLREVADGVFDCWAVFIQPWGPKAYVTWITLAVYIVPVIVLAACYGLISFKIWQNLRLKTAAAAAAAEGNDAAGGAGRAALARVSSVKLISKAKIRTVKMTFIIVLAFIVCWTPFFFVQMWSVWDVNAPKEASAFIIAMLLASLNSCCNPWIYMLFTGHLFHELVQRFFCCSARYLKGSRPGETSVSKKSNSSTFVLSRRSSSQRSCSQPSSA
Experiment: Displacement of [3H]-oxytocin from oxytocin receptor in rat uterus tissue
Type: tissue-based

pKi: 5.80
Compound: Cc1ccc(S(=O)(=O)N2CCC3(C=Cc4ccccc43)CC2)cc1
